# Measured values: article PMC5612759, “PET Imaging of FSHR Expression in Tumors with ^68Ga-Labeled FSH1 Peptide” (Contrast Media & Molecular Imaging, 2017)
# Experiments:
# [1] = In vitro stability in PBS (radio-HPLC); format: physicochemical; settings: 37°C; for Radiochemical purity (%) after incubation in PBS: 370 KBq in 200 μL PBS
# Description: (§1) 10 μL 370 KBq [^68Ga] Ga-NOTA-MAL-FSH1 in saline was incubated in 200 μL PBS or 200 μL human serum for 30, 60, and 120 min at 37°C, respectively. The stability of the labeled peptide in PBS was determined by directly injecting an aliquot of the solution into the HPLC at the preselected time points.
# [2] = format: in vitro ADME, human
# Description: as §1
# The serum was first mixed with 200 μL acetonitrile to precipitate the proteins. Subsequently, after centrifugation, supernatant was collected and analyzed by radio-HPLC [18]. Protein-binding fraction was calculated by dividing the radioactivity of the precipitation layer by the total activity used.
# physchem = format: physicochemical; settings: pH 7.4
# Description: To an Eppendorf tube filled with 0.5 mL of the radiolabeled peptide (10 μL, 370 KBq) in phosphate-buffered saline (pH 7.4), 0.5 mL of octanol was added. After stirring for 2 min at room temperature, the two layers were separated by centrifugation. Radioactivity in 100 μL of each layer was measured in a γ-counter (Perkin-Elmer), and log D values were calculated. Experiments were performed in triplicate.
# PC-3 cells = assay: Cell uptake in PC-3 cells; format: cell-based, human; settings: 370 KBq, 37°C; for Cell uptake: triplicate
# Description: PC-3 cells were suspended in 500 μL RPMI 1640 and seeded in 24-well tissues culture plates (1 × 10^5 cells per well) for overnight incubation. After washing with PBS, the cells were incubated with 370 KBq [^68Ga] Ga-NOTA-MAL-FSH1 in the presence or absence of unlabeled FSH1 (to a final concentration of 1 μM) at 37°C for 15, 30, 60, and 120 min, respectively. The cells were washed 3 times with ice-cold PBS and lysed in 0.5 mL of 1.0 M NaOH. The remaining radioactivity was measured in the γ-counter. Cell uptakes were expressed as the percentage of added radioactive dose (% AD). Experiments were performed in triplicate.
# in vivo [3] = assay: in vivo; set-up: species or system mice; settings: male, athymic nude, mouse, iv, 3.7 MBq, total radioactivity
# Description: (§2) The PC-3 tumor model was generated by subcutaneous injection of 5 × 10^6 cells into the right front flank of male athymic nude mice (4 weeks old, SLAC Laboratory Animal Co., Ltd., China).
# (§3) The mice were used for MicroPET studies when the tumor volume reached 100–300 mm^3, which took about 2 weeks. The animal experiments were conducted in compliance with the national regulations and approved by local animal welfare committee.
# Mice was injected intravenously with 100 μL 3.7 MBq [^68Ga] Ga-NOTA-MAL-FSH1 in saline under isoflurane anesthesia and subjected to MicroPET imaging. The breathing and body temperature of the mice were monitored by BioVet CT1 system (M2M Imaging Corp.). For the blocking experiment, unlabeled peptide (10 mg/kg body weight) and 3.7 MBq [^68Ga] Ga-NOTA-MAL-FSH1 were coinjected into five mice. Static PET images were acquired for 5 min using an Inveon MicroPET/CT scanner (Siemens Medical Solutions) at 30 min, 1 h, and 2 h postinjection. The quantification analysis of PET images was performed using the same method as previously reported.
# in vivo [4] = assay: in vivo; set-up: species or system mice; settings: male, athymic nude, mouse, 740 KBq, total radioactivity
# Description: as §2, §3
# A number of twenty tumor bearing mice were euthanized with isoflurane (inhalation excess) and dissected at 0.5 h, 1 h, and 2 h (5 mice per time-point) after administrating 740 KBq [^68Ga] Ga-NOTA-MAL-FSH1. To determine the specific uptake, mice were coinjected with the probe with 100 μg of unmodified peptide and sacrificed at 1 h p.i. Normal organs and tumors were collected and weighed. The radioactivity was measured by the γ-counter and the percentage of injected dose per gram of tissue (% ID/g) was determined.
smiles,measurement,setting,value
"CC[C@H](C)[C@H](NC(=O)[C@H](CCCCN)NC(=O)[C@@H]1CCCN1C(=O)[C@H](CCCNC(=N)N)NC(=O)[C@H](C)NC(=O)[C@@H]1CCCN1C(=O)[C@H](CC(=O)O)NC(=O)[C@H](CCCCN)NC(=O)[C@H](Cc1ccc(O)cc1)NC(=O)[C@@H](NC(=O)[C@H](CC(C)C)NC(=O)[C@H](CC(=O)O)NC(=O)[C@H](CCCNC(=N)N)NC(=O)[C@@H](NC(=O)[C@@H](N)Cc1ccc(O)cc1)[C@@H](C)O)C(C)C)C(=O)N[C@@H](CCC(N)=O)C(=O)N[C@@H](CCCCN)C(=O)N[C@H](C(=O)N[C@@H](CSC1CC(=O)N(CCNC(=O)CN2CCN(CC(=O)O)CCN(CC(=O)O)CC2)C1=O)C(=O)N[C@H](C(=O)N[C@@H](Cc1ccccc1)C(=O)O)[C@@H](C)O)[C@@H](C)O (some centres unmarked) [[^68Ga] Ga-NOTA-MAL-FSH1, metal not drawn]",Radiochemical purity (%) after incubation in PBS,[1]; 0.5 h,96.7 ± 1.3%
same,Radiochemical purity (%) after incubation in PBS,[1]; 1 h,97.3 ± 1.2%
same,Time stable in PBS,[1]; PBS,at least 2 hours
same,Radiochemical purity (%) after incubation in human serum,[2],96.6 ± 1.1%
same,Time stable in human serum,[2],at least 2 hours
same,logD at 2 min,physchem,-3.12 ± 0.05
same,Cell uptake,PC-3 cells; 15 min,1.10 ± 0.15 % AD
same,Cell uptake,PC-3 cells; 30 min,1.39 ± 0.20 % AD
same,Cell uptake,PC-3 cells; 60 min,1.51 ± 0.19 % AD
same,Cell uptake in the presence of blocking agent,"PC-3 cells; 60 min, with 1 μM unlabeled FSH1, triplicate",0.30 ± 0.07 % AD
same,Cell uptake,PC-3 cells; 120 min,1.52 ± 0.21 % AD
same,tissue uptake at 0.5 h,in vivo [3]; Uptake Kidney,18.7 ± 3.44 %ID/g
same,tissue uptake at 1 h,in vivo [3]; Uptake Kidney,21.1 ± 3.64 %ID/g
same,tissue uptake at 2 h,in vivo [3]; Uptake Kidney,14.1 ± 2.76 %ID/g
same,tissue uptake at 0.5 h,in vivo [3]; Uptake Liver,0.8 ± 0.07 %ID/g
same,tissue uptake at 1 h,in vivo [3]; Uptake Liver,0.44 ± 0.06 %ID/g
same,tissue uptake at 2 h,in vivo [3]; Uptake Liver,0.57 ± 0.12 %ID/g
same,tissue uptake at 0.5 h,in vivo [3]; Uptake Muscle,0.25 ± 0.02 %ID/g
same,tissue uptake at 1 h,in vivo [3]; Uptake Muscle,0.21 ± 0.04 %ID/g
same,tissue uptake at 2 h,in vivo [3]; Uptake Muscle,0.13 ± 0.03 %ID/g
same,tissue uptake at 0.5 h,in vivo [3]; Uptake Tumor,1.87 ± 0.1 %ID/g
same,tissue uptake at 1 h,in vivo [3]; Uptake Tumor,1.26 ± 0.06 %ID/g
same,tissue uptake at 2 h,in vivo [3]; Uptake Tumor,0.71 ± 0.1 %ID/g
same,tissue uptake at 0.5 h,in vivo [4]; % ID/g in Blood,0.95 ± 0.01 %ID/g
same,tissue uptake at 1 h,in vivo [4]; % ID/g in Blood,0.17 ± 0.02 %ID/g
same,tissue uptake at 2 h,in vivo [4]; % ID/g in Blood,0.13 ± 0.06 %ID/g
same,tissue uptake at 0.5 h,in vivo [4]; % ID/g in Bone,0.34 ± 0.06 %ID/g
same,tissue uptake at 1 h,in vivo [4]; % ID/g in Bone,0.15 ± 0.07 %ID/g
same,tissue uptake at 2 h,in vivo [4]; % ID/g in Bone,0.06 ± 0.02 %ID/g
same,tissue uptake at 0.5 h,in vivo [4]; % ID/g in Brain,0.07 ± 0.01 %ID/g
same,tissue uptake at 1 h,in vivo [4]; % ID/g in Brain,0.03 ± 0.01 %ID/g
same,tissue uptake at 2 h,in vivo [4]; % ID/g in Brain,0.02 ± 0.01 %ID/g
same,tissue uptake at 0.5 h,in vivo [4]; % ID/g in Fat,0.4 ± 0.01 %ID/g
same,tissue uptake at 1 h,in vivo [4]; % ID/g in Fat,0.13 ± 0.06 %ID/g
same,tissue uptake at 2 h,in vivo [4]; % ID/g in Fat,0.04 %ID/g
same,tissue uptake at 0.5 h,in vivo [4]; % ID/g in Heart,0.35 ± 0.18 %ID/g
same,tissue uptake at 1 h,in vivo [4]; % ID/g in Heart,0.14 ± 0.05 %ID/g
same,tissue uptake at 2 h,in vivo [4]; % ID/g in Heart,0.05 ± 0.03 %ID/g
same,tissue uptake at 0.5 h,in vivo [4]; % ID/g in Intestine,0.32 ± 0.06 %ID/g
same,tissue uptake at 1 h,in vivo [4]; % ID/g in Intestine,0.15 ± 0.03 %ID/g
same,tissue uptake at 2 h,in vivo [4]; % ID/g in Intestine,0.05 ± 0.02 %ID/g
same,tissue uptake at 0.5 h,in vivo [4]; % ID/g in Kidney,25 ± 1.77 %ID/g
same,tissue uptake at 1 h,in vivo [4]; % ID/g in Kidney,18.2 ± 2.81 %ID/g
same,tissue uptake at 2 h,in vivo [4]; % ID/g in Kidney,13.9 ± 0.83 %ID/g
same,tissue uptake at 0.5 h,in vivo [4]; % ID/g in Liver,0.93 ± 0.28 %ID/g
same,tissue uptake at 1 h,in vivo [4]; % ID/g in Liver,0.56 ± 0.04 %ID/g
same,tissue uptake at 2 h,in vivo [4]; % ID/g in Liver,0.37 ± 0.05 %ID/g
same,tissue uptake at 0.5 h,in vivo [4]; % ID/g in Lung,0.67 ± 0.07 %ID/g
same,tissue uptake at 1 h,in vivo [4]; % ID/g in Lung,0.14 ± 0.01 %ID/g
same,tissue uptake at 2 h,in vivo [4]; % ID/g in Lung,0.1 ± 0.01 %ID/g
same,tissue uptake at 0.5 h,in vivo [4]; % ID/g in Muscle,0.26 ± 0.01 %ID/g
same,tissue uptake at 1 h,in vivo [4]; % ID/g in Muscle,0.07 ± 0.01 %ID/g
same,tissue uptake at 2 h,in vivo [4]; % ID/g in Muscle,0.04 ± 0.02 %ID/g
same,tissue uptake at 0.5 h,in vivo [4]; % ID/g in Pancreas,0.94 ± 0.13 %ID/g
same,tissue uptake at 1 h,in vivo [4]; % ID/g in Pancreas,0.11 ± 0.03 %ID/g
same,tissue uptake at 2 h,in vivo [4]; % ID/g in Pancreas,0.04 ± 0.02 %ID/g
same,tissue uptake at 0.5 h,in vivo [4]; % ID/g in Spleen,0.33 ± 0.03 %ID/g
same,tissue uptake at 1 h,in vivo [4]; % ID/g in Spleen,0.26 ± 0.08 %ID/g
same,tissue uptake at 2 h,in vivo [4]; % ID/g in Spleen,0.11 ± 0.05 %ID/g
same,tissue uptake at 0.5 h,in vivo [4]; % ID/g in Stomach,0.4 ± 0.17 %ID/g
same,tissue uptake at 1 h,in vivo [4]; % ID/g in Stomach,0.16 ± 0.06 %ID/g
same,tissue uptake at 2 h,in vivo [4]; % ID/g in Stomach,0.04 ± 0.01 %ID/g
same,tissue uptake at 0.5 h,in vivo [4]; % ID/g in Testis,0.24 ± 0.02 %ID/g
same,tissue uptake at 1 h,in vivo [4]; % ID/g in Testis,0.08 ± 0.01 %ID/g
same,tissue uptake at 2 h,in vivo [4]; % ID/g in Testis,0.03 ± 0.01 %ID/g
same,tissue uptake at 0.5 h,in vivo [4]; % ID/g in Tumor,1.97 ± 0.17 %ID/g
same,tissue uptake at 1 h,in vivo [4]; % ID/g in Tumor,1.2 ± 0.27 %ID/g
same,tissue uptake at 2 h,in vivo [4]; % ID/g in Tumor,0.97 ± 0.15 %ID/g
same,tissue to tissue ratio at 0.5 h,in vivo [4]; Ratio of tumor to Blood,1.77 ± 0.7
same,tissue to tissue ratio at 1 h,in vivo [4]; Ratio of tumor to Blood,7.94 ± 1.35
same,tissue to tissue ratio at 2 h,in vivo [4]; Ratio of tumor to Blood,10.4 ± 1.16
same,tissue to tissue ratio at 0.5 h,in vivo [4]; Ratio of tumor to Intestine,6.68 ± 1.41
same,tissue to tissue ratio at 1 h,in vivo [4]; Ratio of tumor to Intestine,11.2 ± 2.42
same,tissue to tissue ratio at 2 h,in vivo [4]; Ratio of tumor to Intestine,14.2 ± 1.47
same,tissue to tissue ratio at 0.5 h,in vivo [4]; Ratio of tumor to Kidney,0.07 ± 0.01
same,tissue to tissue ratio at 1 h,in vivo [4]; Ratio of tumor to Kidney,0.1 ± 0.02
same,tissue to tissue ratio at 2 h,in vivo [4]; Ratio of tumor to Kidney,0.06
same,tissue to tissue ratio at 0.5 h,in vivo [4]; Ratio of tumor to Liver,2.67 ± 0.5
same,tissue to tissue ratio at 1 h,in vivo [4]; Ratio of tumor to Liver,3.1 ± 0.4
same,tissue to tissue ratio at 2 h,in vivo [4]; Ratio of tumor to Liver,2.84 ± 0.9
same,tissue to tissue ratio at 0.5 h,in vivo [4]; Ratio of tumor to Muscle,7.42 ± 0.46
same,tissue to tissue ratio at 1 h,in vivo [4]; Ratio of tumor to Muscle,26.1 ± 2.99
same,tissue to tissue ratio at 2 h,in vivo [4]; Ratio of tumor to Muscle,36.4 ± 2.54
